Results as given in US8263592B2, “Equilibrative nucleoside transporter ENT1 inhibitors” (Janssen Pharmaceutica NV, priority 2007, dated 2012).

By UniProt entry, the sequences of proteins in these tests, tags left out.
UniProt Q99808, whole entry: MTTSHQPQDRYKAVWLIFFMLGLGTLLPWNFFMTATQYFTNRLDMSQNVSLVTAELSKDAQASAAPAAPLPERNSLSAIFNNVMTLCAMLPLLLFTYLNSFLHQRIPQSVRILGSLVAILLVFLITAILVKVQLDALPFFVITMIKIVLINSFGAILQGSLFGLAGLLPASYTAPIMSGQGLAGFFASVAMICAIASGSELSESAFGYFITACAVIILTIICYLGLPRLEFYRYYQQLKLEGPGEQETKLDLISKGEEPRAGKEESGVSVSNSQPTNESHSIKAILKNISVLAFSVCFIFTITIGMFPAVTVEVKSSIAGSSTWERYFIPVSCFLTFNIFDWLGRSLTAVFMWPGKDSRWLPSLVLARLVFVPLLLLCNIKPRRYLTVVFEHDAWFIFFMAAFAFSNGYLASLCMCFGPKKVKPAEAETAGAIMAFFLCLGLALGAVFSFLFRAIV

Molecular target: human ENT1 transporter (Homo sapiens, UniProt Q99808)
Assay: hENT1-NBMPR-ERYTH binding assay ([3H]NBMPR, human erythrocytes)
Conditions: [3H]NBMPR 1 nM, washed human red blood cells 1:200, 30 minutes at room temperature; pIC50=-log(IC50)

| pIC50 values for ENT1 transporter inhibition | SMILES |
| --- | --- |
| 8.69 | O=C1NC2(CCN(CCNC(=O)c3c(Cl)cccc3Cl)CC2)Oc2cc(N3CCOCC3)c(Cl)cc21 |
| 8.92 | CC(=O)N1CCC(Nc2cc3c(cc2Cl)CCC2(CCN(CCNC(=O)c4c(Cl)cccc4Cl)CC2)O3)CC1 |
| 6.57 | Cc1cccc(C)c1C(=O)NCCN1CCC2(CC1)NC(=O)c1cc(Cl)c(NC3CCNCC3)cc1O2 |
| 7.39 | CNc1cc(Cl)cc2c1OC1(CCN(CCNC(=O)c3c(Cl)cccc3Cl)CC1)NC2=O |
| 7.54 | Nc1cc(Cl)cc2c1OC1(CCN(CCNC(=O)c3c(Cl)cccc3Cl)CC1)CC2=O |
| 8.405 | Cc1cc2c(cc1NC(=O)C1CCCC1)OC1(CCN(CCNC(=O)c3c(Cl)cccc3Cl)CC1)CC2=O |
| 7.945 | CC(C)Oc1cc(Cl)cc2c1OC1(CCN(CCNC(=O)c3c(Cl)cccc3Cl)CC1)CC2=O |
| 8.16 | O=C1CC2(CCN(CCNC(=O)c3c(Cl)cccc3Cl)CC2)Oc2c(OC3CCCC3)cc(Cl)cc21 |
| 7.33 | Cc1cc(NC2CCOCC2)c2c(c1)C(=O)NC1(CCN(CCNC(=O)c3c(C)cccc3C)CC1)O2 |
| 7.92 | Cc1cccc(C)c1C(=O)NCCN1CCC2(CC1)CC(=O)c1cc(Cl)c(OC(C)C)cc1O2 |
| 7.50 | Nc1cc2c(cc1Cl)C(=O)CC1(CCN(CCNC(=O)c3c(Cl)cccc3Cl)CC1)O2 |
| 6.5 | COc1cc(Cl)cc2c1OC1(CCN(CCNC(=O)c3c(C)cccc3C)CC1)NC2=O |
| 8.01 | Cc1cccc(C)c1C(=O)NCCN1CCC2(CC1)NC(=O)c1cc(Cl)c(NCC3CCCC3)cc1O2 |
| 10.10 | O=C(NCCN1CCC2(CCc3cc(Cl)c(OC4CCCC4)cc3O2)CC1)c1c(Cl)cccc1Cl |
| 8.215 | O=C1NC2(CCN(CCNC(=O)c3c(Cl)cccc3Cl)CC2)Oc2c1ccc(N1CCOCC1)c2Cl |
| 8.375 | CC(=O)N1CCC(Nc2cc(C)cc3c2OC2(CCN(CCNC(=O)c4c(Cl)cccc4Cl)CC2)NC3=O)CC1 |
| 6.29 | Cc1cccc(C)c1C(=O)NCCN1CCC2(CC1)NC(=O)c1cc(Cl)cc(OC(C)C)c1O2 |
| 7.56 | COCCCNc1cc(Cl)cc2c1OC1(CCN(CCNC(=O)c3c(Cl)cccc3Cl)CC1)NC2=O |
| 6.19 | Cc1cc2c(c(N3CCOCC3)c1)OC1(CCN(CCNC(=O)c3c(C)cccc3C)CC1)NC2=O |
| 7.35 | COc1ccc2c(c1)OC1(CCN(CCNC(=O)c3c(Cl)cccc3Cl)CC1)NC2=O |
| 7.345 | CC(=O)N1CCC(Nc2ccc3c(c2Cl)OC2(CCN(CCNC(=O)c4c(Cl)cccc4Cl)CC2)CC3=O)CC1 |
| 9.41 | Cc1cc2c(cc1OC(C)C)OC1(CCN(CCNC(=O)c3c(Cl)cccc3Cl)CC1)CC2=O |
| 9.30 | CN(CCCNc1cc2c(cc1Cl)C(=O)NC1(CCN(CCNC(=O)c3c(Cl)cccc3Cl)CC1)O2)C(=O)OC(C)(C)C |
| 9.46 | Cc1cc2c(cc1NCC1CCCC1)OC1(CCN(CCNC(=O)c3c(Cl)cccc3Cl)CC1)CC2=O |
| 8.43 | COCCCNc1cc2c(cc1Cl)C(=O)CC1(CCN(CCNC(=O)c3c(C)cccc3C)CC1)O2 |

| pIC50 values for ENT1 transporter inhibition | SMILES |
| --- | --- |
| 7.22 | Nc1ccc2c(c1)OC1(CCN(CCNC(=O)c3c(Cl)cccc3Cl)CC1)CC2=O |
| 8.025 | CC(C)Oc1ccc2c(c1Cl)OC1(CCN(CCNC(=O)c3c(Cl)cccc3Cl)CC1)NC2=O |
| 9.29 | O=C(NCCN1CCC2(C=Cc3cc(Cl)c(OC4CCCC4)cc3O2)CC1)c1c(Cl)cccc1Cl |
| 7.38 | Cc1cccc(C)c1C(=O)NCCN1CCC2(CC1)NC(=O)c1cc(Cl)c(NCCCO)cc1O2 |
| 7.925 | CC(=O)N1CCC(Oc2cc(C)cc3c2OC2(CCN(CCNC(=O)c4c(Cl)cccc4Cl)CC2)CC3=O)CC1 |
| 9.70 | CC(C)(C)OC(=O)N1CCC(Nc2cc3c(cc2Cl)C(=O)NC2(CCN(CCNC(=O)c4c(Cl)cccc4Cl)CC2)O3)CC1 |
| 8.32 | O=C1CC2(CCN(CCNC(=O)c3c(Cl)cccc3Cl)CC2)Oc2c(Br)cc(Cl)cc21 |
| 7 | O=C1NC2(CCN(CCNC(=O)c3c(Cl)cccc3Cl)CC2)Oc2c(NCCCO)cc(Cl)cc21 |
| 9.335 | Cc1cc2c(cc1OC1CCCC1)OC1(C=C2)CCN(CCNC(=O)c2c(Cl)cccc2Cl)CC1 |
| 8.78 | O=C1CC2(CCN(CCNC(=O)c3c(Cl)cccc3Cl)CC2)Oc2cc(NCCO)c(Cl)cc21 |
| 8.81 | CC(C)Oc1cc2c(cc1Cl)C(O)CC1(CCN(CCNC(=O)c3c(Cl)cccc3Cl)CC1)O2 (stereo not drawn) |
| 9.09 | CC(=O)N1CCC(Oc2cc3c(cc2Cl)C(O)CC2(CCN(CCNC(=O)c4c(Cl)cccc4Cl)CC2)O3)CC1 (single isomer, unassigned) [104] |
| 8.39 | O=C1NC2(CCN(CCNC(=O)c3c(Cl)cccc3Cl)CC2)Oc2cc(NC3CCCC3)ccc21 |
| 5.42 | Cc1cc(N)c2c(c1)C(=O)NC1(CCN(CCNC(=O)c3c(C)cccc3C)CC1)O2 |
| 8.49 | O=C1NC2(CCN(CCNC(=O)c3c(Cl)cccc3Cl)CC2)Oc2c1ccc(OC1CCCC1)c2Cl |
| 6.81 | O=C1CC2(CCN(CCNC(=O)c3c(Cl)cccc3Cl)CC2)Oc2ccc(F)cc21 |
| 8.535 | CC(=O)N1CCC(Nc2cc(C)cc3c2OC2(CCN(CCNC(=O)c4c(Cl)cccc4Cl)CC2)CC3=O)CC1 |
| 8.80 | O=C1NC2(CCN(CCNC(=O)c3c(Cl)cccc3Cl)CC2)Oc2cc(OC3CCCC3)ccc21 |
| 7.28 | CNc1ccc2c(c1)OC1(CCN(CCNC(=O)c3c(Cl)cccc3Cl)CC1)NC2=O |
| 7.73 | CC(=O)N1CCC(Oc2cc(Cl)cc3c2OC2(CCN(CCNC(=O)c4c(Cl)cccc4Cl)CC2)CC3=O)CC1 |
| 8.74 | Cc1cc(NC2CCCC2)c2c(c1)C(=O)NC1(CCN(CCNC(=O)c3c(Cl)cccc3Cl)CC1)O2 |
| 7.21 | Cc1cc(NC(C)C)c2c(c1)C(=O)NC1(CCN(CCNC(=O)c3c(C)cccc3C)CC1)O2 |
| 8.175 | Cc1cc2c(cc1NC(=O)CC1CCCC1)OC1(CCN(CCNC(=O)c3c(Cl)cccc3Cl)CC1)CC2=O |
| 8.17 | O=C1CC2(CCN(CCNC(=O)c3c(Cl)cccc3Cl)CC2)Oc2cc(NC3CCNCC3)c(Cl)cc21 |
| 7.115 | O=C1CC2(CCN(CCNC(=O)c3c(Cl)cccc3Cl)CC2)Oc2c(O)cc(Cl)cc21 |

| pIC50 values for ENT1 transporter inhibition | SMILES |
| --- | --- |
| 7.005 | Cc1cc(O)c2c(c1)C(=O)CC1(CCN(CCNC(=O)c3c(Cl)cccc3Cl)CC1)O2 |
| 7.38 | CC(=O)Nc1ccc2c(c1)OC1(CCN(CCNC(=O)c3c(Cl)cccc3Cl)CC1)CC2=O |
| 9.31 | Cc1cc2c(cc1OC1CCCC1)OC1(CCN(CCNC(=O)c3c(Cl)cccc3Cl)CC1)CC2=O |
| 7.74 | O=C(NCCN1CCC2(CC1)CC(O)c1cc(Cl)c(Br)cc1O2)c1c(Cl)cccc1Cl (stereo not drawn) |
| 8.44 | Cc1cc(OC(C)C)c2c(c1)C(=O)CC1(CCN(CCNC(=O)c3c(Cl)cccc3Cl)CC1)O2 |
| 6.88 | Cc1cccc(C)c1C(=O)NCCN1CCC2(CC1)NC(=O)c1cc(Cl)cc(OC3CCCC3)c1O2 |
| 7.45 | CC(=O)N1CCC(Oc2cc(Cl)cc3c2OC2(CCN(CCNC(=O)c4c(Cl)cccc4Cl)CC2)NC3=O)CC1 |
| 9.73 | CC(C)Oc1cc2c(cc1Cl)C=CC1(CCN(CCNC(=O)c3c(Cl)cccc3Cl)CC1)O2 |
| 7.31 | CC(=O)Nc1cc2c(cc1Cl)C(=O)NC1(CCN(CCNC(=O)c3c(Cl)cccc3Cl)CC1)O2 |
| 8.69 | Cc1cccc(C)c1C(=O)NCCN1CCC2(CC1)CC(=O)c1cc(Cl)c(NC3CCCC3)cc1O2 |
| 7.18 | Cc1cccc(C)c1C(=O)NCCN1CCC2(CC1)NC(=O)c1cc(Cl)c(NC3CCOCC3)cc1O2 |
| 6.40 | COc1cc(OC)c2c(c1)OC1(CCN(CCNC(=O)c3c(Cl)cccc3Cl)CC1)CC2=O |
| 7.88 | O=C(NCCN1CCC2(CC1)CC(=O)c1c(cccc1N1CCCC1)O2)c1c(Cl)cccc1Cl |
| 5.94 | Cc1cccc(C)c1C(=O)NCCN1CCC2(CC1)NC(=O)c1cc(Cl)cc(N)c1O2 |
| 8.90 | CC(C)Oc1cc2c(cc1Cl)C(=O)NC1(CCN(CCNC(=O)c3c(Cl)cccc3Cl)CC1)O2 |
| 7.75 | COc1ccc2c(c1OC)OC1(CCN(CCNC(=O)c3c(Cl)cccc3Cl)CC1)CC2=O |
| 8.055 | CC(=O)N1CCC(Nc2cc3c(cc2C)CCC2(CCN(CCNC(=O)c4c(Cl)cccc4Cl)CC2)O3)CC1 |
| 6.90 | Cc1cc2c(cc1N)OC1(CCN(CCNC(=O)c3c(Cl)cccc3Cl)CC1)CC2=O |
| 7.80 | O=C1NC2(CCN(CCNC(=O)c3c(Cl)cccc3Cl)CC2)Oc2cc(N3CCNCC3)c(Cl)cc21 |
| 7.52 | CN(C)c1cc(Cl)cc2c1OC1(CCN(CCNC(=O)c3c(Cl)cccc3Cl)CC1)NC2=O |
| 7.895 | COCCCNc1ccc2c(c1Cl)OC1(CCN(CCNC(=O)c3c(C)cccc3C)CC1)NC2=O |
| 7.05 | COc1ccc2c(c1)OC1(CCN(CCNC(=O)c3c(Cl)cccc3Cl)CC1)CC2=O |
| 7.36 | Cc1cc2c(c(N(C)C)c1)OC1(CCN(CCNC(=O)c3c(C)cccc3C)CC1)NC2=O |
| 6.98 | Cc1cccc(C)c1C(=O)NCCN1CCC2(CC1)NC(=O)c1ccc(N3CCOCC3)c(Cl)c1O2 |
| 6.08 | O=C1NC2(CCN(CCNC(=O)c3c(Cl)cccc3Cl)CC2)Oc2cc(O)c(Cl)cc21 |
